## Antibody variant affinities, Ab-91 heavy chain, assay 2

The target is the same throughout: PDVDLGDISGINAS, from the HR2 region of SARS-CoV-2 spike.

Parent: Ab-91, a human scFv built as VL, three GGGGS repeats, VH. Only the CDRs of the heavy chain vary.
VL: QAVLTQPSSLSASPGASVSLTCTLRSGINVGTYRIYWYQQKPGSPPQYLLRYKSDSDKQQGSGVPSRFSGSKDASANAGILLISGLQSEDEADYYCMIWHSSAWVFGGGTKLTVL
VH: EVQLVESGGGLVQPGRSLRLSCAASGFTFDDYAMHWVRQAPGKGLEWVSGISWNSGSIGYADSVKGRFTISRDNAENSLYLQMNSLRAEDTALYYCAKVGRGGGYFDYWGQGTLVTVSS

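Phage display of a naive human antibody library on the peptide gave the parent. Library AAYL51 holds single substitutions and randomly drawn double and triple substitutions in the CDRs. The assay is AlphaSeq: two haploid yeast populations carry antibody and antigen on their surface. Pairs that bind mate more often; barcode pairs of the diploids are counted by sequencing. Each replicate has its own calibration line, from reference interactions of the BCL2 family. The assay was run in three technical replicates.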

Variants are written as CDR1, CDR2 and CDR3 of the heavy chain (limits as in the source). Parent: GFTFDDYAMH, GISWNSGSIGYADSVK, VGRGGGYFDY.
Every variant below is changed at N54 of the VH (sequential numbering).
The Kd shown is the geometric mean over detected replicates; a lower Kd is a better binder.
Where no diploid with the target was found in any replicate, the entry reads "no signal": below detection, most likely a poor binder, though not proof of it.

- GFTFNDYAMH / GIIWMSGSIGYADSVK / VGRGGGYFDY = no signal (0 of 3 replicates; controls 1 of 9)
- GFTFDDYAMH / GIHWISGSIGYADSVK / VGRGGGYFDE = no signal (0 of 3 replicates; controls 1 of 9)
- FFTFDDYAMH / GISWWSGSIGYADIVK / VGRGGGYFDY = 38 µM (2 of 3 replicates; controls 7 of 9)
- GFTFDDYAMH / GISWKSGSIGYADSVK / KGRDGGYFDY = 57 µM (1 of 3 replicates; controls 3 of 9)
- GFTFDDYAMH / GISWYSYSIGYADSVK / VGRGGGYFEY = 540 µM (1 of 3 replicates; controls 1 of 9)
- GRTFDDYAMH / GISWTSGSIGYADSVK / VGRGGGYFIY = 7.7 µM (1 of 3 replicates; controls 4 of 9)
- GFTFDDYAMH / GISWVSGSIGYADSVK / VGMGWGYFDY = 16 µM (1 of 3 replicates; controls 5 of 9)
- GFTFDDYAMH / GISWHSGSIMYHDSVK / VGRGGGYFDY = 420 µM (2 of 3 replicates; controls 5 of 9)
- GFTFDDYAMH / GINWCSGSIGCADSVK / VGRGGGYFDY = no signal (0 of 3 replicates; controls 0 of 9)
- GFTFDDYAMH / GISWQSGSIGYPDSVK / VGRGGGYFDY = 25 µM (1 of 3 replicates; controls 1 of 9)
- GFTFDDKAMH / GISWISGSIGYADSVK / VGRCGGYFDY = no signal (0 of 3 replicates; controls 0 of 9)
- GFTFDDYAMH / GISWISGSIGYADSVK / VGRGGGYFDY = 39 µM (1 of 3 replicates; controls 3 of 9)
- GFTFDDYAMH / GISWSSGSIGYVDSQK / VGRGGGYFDY = 450 µM (3 of 3 replicates; controls 7 of 9)
- LFTFDDYAMH / GISWKSGSIGYADSVK / VGRGGAYFDY = 770 nM (2 of 3 replicates; controls 0 of 9)
- GFTFDDYAYH / GISWHSGSIGYADFVK / VGRGGGYFDY = 150 µM (1 of 3 replicates; controls 1 of 9)
- GFTFDDYAMH / GISWRSGSAGYADSVK / VGRGGRYFDY = no signal (0 of 3 replicates; controls 1 of 9)
- GFGFDDQAMH / GISWDSGSIGYADSVK / VGRGGGYFDY = 8.0 µM (1 of 3 replicates; controls 1 of 9)
- GFTFDDYAMH / GISWRSGSLGYADSVK / VGRGGGYVDY = no signal (0 of 3 replicates; controls 0 of 9)
- GFTFVDYAMH / GISWVSGSIGYADSVK / VGRGGGYFDY = 58 µM (2 of 3 replicates; controls 3 of 9)
- GFTFDDYAMH / GISWFSGIEGYADSVK / VGRGGGYFDY = no signal (0 of 3 replicates; controls 1 of 9)
- GFTFDDYPGH / GISWPSGSIGYADSVK / VGRGGGYFDY = 12 µM (3 of 3 replicates; controls 1 of 9)
- GFTFDDYAMH / GISWGSCSIGYASSVK / VGRGGGYFDY = 2.2 µM (3 of 3 replicates; controls 0 of 9)
- GFTFDDYAMH / GISWRSGSIGYADSVK / VDRGGGYWDY = 110 µM (1 of 3 replicates; controls 1 of 9)
- GFTFDDYAMH / GIEWQSGSIGYADSEK / VGRGGGYFDY = no signal (0 of 3 replicates; controls 0 of 9)
- GFTFDDYHMH / GISWDSGSIGYADSVK / VGRGGGYFDY = 9.8 µM (1 of 3 replicates; controls 1 of 9)
- GFTFDDYAMH / GISWPSGSIGYADSVK / VGMGGGYRDY = no signal (0 of 3 replicates; controls 0 of 9)
- GFTFDDYAMH / GISWCSGSIGYADSVK / VGRGGHYFDY = no signal (0 of 3 replicates; controls 0 of 9)
- GFTFDDYANH / GISWDSLSIGYADSVK / VGRGGGYFDY = 51 µM (2 of 3 replicates; controls 5 of 9)
- GFTFDDYAMH / GISWESGSIGYADSVK / VGEGGGVFDY = 110 µM (2 of 3 replicates; controls 4 of 9)
- GFTFDDYAMH / WISWESGSIGYADSVK / VGRGGGYFNY = no signal (0 of 3 replicates; controls 1 of 9)
- GFTFDDSAMH / GISWESGSIGYADSIK / VGRGGGYFDY = no signal (0 of 3 replicates; controls 0 of 9)
- GFTFDDYAMH / GISWLSGSIGYADSVK / VGRGGGYFDY = 24 µM (2 of 3 replicates; controls 3 of 9)

For reference, 3 entries of the list once more:

- GFTFDDYAMH / GISWISGSIGYADSVK / VGRGGGYFDY = 39 µM (1 of 3 replicates; controls 3 of 9)
- GFTFDDYAMH / GISWQSGSIGYPDSVK / VGRGGGYFDY = 25 µM (1 of 3 replicates; controls 1 of 9)
- GRTFDDYAMH / GISWTSGSIGYADSVK / VGRGGGYFIY = 7.7 µM (1 of 3 replicates; controls 4 of 9)

For reference, the parent read 72 nM as the reference entry and 7.5 nM as a member of this library.
Three control strains display no target. For library AAYL51, 21% of the pairings with them gave a signal, with a median of 34 µM and one signal in twenty below 1.8 µM, so weak values seen in few replicates may be background. The control count says in how many pairings with the empty strains this scFv gave a signal.

Source: Engelhart et al. 2022 (doi:10.1038/s41597-022-01779-4), MIT Lincoln Laboratory and A-Alpha Bio; data file from the FLAb repository.